Legend:
[1] = system: Hepatoma 130 tumor; assay: Hepatoma 130 tumor growth inhibition and lethality, intraperitoneal (Table 2); details: 1 × dose
[2] = system: Ehrlich ascites tumor; assay: Ehrlich ascites tumor growth inhibition and lethality, intraperitoneal (Table I)
[3] = system: Walker 256 tumor; assay: Walker 256 tumor growth inhibition and lethality, intraperitoneal (Table 4); details: 5 × dose

O=C(O)c1ccc(N(CCCl)CCCl)cc1
ED50 (Effect) [1]: 20 mg/kg
LD50 (Lethality) [1]: 125 mg/kg
LD50 (Lethality) ([2]; 1 × dose): 125 mg/kg
Effect ([2]; at 1 × 63 mg/kg): no effect
ED50 (Effect) [3]: 13.4 mg/kg
LD50 (Lethality) [3]: 89 mg/kg
